Measurements published in US9126999B2, “Tetrahydropyrazolopyrimidine compounds” (EISAI R&D MANAGEMENT CO., LTD., priority 2012, dated 2015).
pIC50: −log10 of the molar value. Read-outs that look alike come from different tables or passages of the source.

Sequences of proteins named here, by UniProt entry; tags and fusion partners are left off. Residues count along the entry.
UniProt P58681, 27-1050 limits assumed: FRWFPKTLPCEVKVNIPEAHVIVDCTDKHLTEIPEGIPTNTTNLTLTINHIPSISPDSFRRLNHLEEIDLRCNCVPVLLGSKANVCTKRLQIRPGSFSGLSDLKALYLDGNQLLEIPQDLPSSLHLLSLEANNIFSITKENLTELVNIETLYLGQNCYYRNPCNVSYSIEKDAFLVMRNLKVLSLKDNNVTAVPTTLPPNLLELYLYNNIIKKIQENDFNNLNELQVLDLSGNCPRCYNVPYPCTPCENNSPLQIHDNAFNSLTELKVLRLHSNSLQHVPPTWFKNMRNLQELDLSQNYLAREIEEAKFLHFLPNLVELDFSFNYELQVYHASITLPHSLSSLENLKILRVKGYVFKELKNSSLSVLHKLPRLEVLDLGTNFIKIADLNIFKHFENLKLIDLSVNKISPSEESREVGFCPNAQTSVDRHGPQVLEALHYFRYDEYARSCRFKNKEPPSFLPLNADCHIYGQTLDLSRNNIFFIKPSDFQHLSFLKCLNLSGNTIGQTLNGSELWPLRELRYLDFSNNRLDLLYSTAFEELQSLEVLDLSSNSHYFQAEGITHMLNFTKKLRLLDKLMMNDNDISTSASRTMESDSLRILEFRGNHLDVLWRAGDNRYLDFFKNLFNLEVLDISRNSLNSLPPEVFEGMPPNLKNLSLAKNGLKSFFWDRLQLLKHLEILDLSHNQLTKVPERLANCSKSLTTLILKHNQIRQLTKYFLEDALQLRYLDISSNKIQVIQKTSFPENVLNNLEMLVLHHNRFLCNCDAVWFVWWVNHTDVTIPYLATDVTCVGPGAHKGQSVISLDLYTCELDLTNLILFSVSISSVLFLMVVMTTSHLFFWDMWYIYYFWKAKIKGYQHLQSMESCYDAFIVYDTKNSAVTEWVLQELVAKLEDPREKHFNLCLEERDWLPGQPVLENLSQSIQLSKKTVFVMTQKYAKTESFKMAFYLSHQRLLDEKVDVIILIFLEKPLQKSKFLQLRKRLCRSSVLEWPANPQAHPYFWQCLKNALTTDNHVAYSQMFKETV
UniProt Q9NR97, 27-1041 limits assumed: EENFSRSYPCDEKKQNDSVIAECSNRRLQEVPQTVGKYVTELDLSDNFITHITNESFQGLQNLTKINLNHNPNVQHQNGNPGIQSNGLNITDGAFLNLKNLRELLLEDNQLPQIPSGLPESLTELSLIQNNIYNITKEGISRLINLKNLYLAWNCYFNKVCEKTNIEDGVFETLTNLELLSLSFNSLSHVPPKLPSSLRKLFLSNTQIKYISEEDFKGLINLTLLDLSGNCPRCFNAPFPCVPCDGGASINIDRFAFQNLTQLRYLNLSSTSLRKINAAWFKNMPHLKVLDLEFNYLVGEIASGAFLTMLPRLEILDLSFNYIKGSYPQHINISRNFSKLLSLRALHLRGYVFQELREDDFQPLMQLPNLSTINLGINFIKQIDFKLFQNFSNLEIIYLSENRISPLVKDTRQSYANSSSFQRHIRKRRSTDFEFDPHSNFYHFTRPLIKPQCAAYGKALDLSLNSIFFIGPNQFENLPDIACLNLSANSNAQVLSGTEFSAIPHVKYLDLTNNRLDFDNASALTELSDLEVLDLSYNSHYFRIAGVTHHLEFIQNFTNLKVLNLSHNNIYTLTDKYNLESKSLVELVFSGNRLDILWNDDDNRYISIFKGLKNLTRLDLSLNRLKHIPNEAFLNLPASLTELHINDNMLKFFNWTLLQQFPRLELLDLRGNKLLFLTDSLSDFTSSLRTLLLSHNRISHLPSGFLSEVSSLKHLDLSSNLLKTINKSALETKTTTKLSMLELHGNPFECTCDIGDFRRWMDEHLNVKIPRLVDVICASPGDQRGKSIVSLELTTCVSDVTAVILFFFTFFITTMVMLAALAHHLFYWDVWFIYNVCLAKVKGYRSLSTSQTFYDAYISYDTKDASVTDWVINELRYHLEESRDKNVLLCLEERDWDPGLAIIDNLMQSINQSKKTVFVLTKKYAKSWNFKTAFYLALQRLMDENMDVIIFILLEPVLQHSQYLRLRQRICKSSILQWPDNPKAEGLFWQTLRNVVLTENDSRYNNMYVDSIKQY

Assays:
Mouse TLR7 [1] = molecular target: T1, Mouse TLR7 (Mus musculus, UniProt P58681); assay: Short-term in vivo (STIV) assay: plasma IL-6 after s.c. R848
Method: Figure Legend: Female BALB/c mice were dosed by oral gavage with Vehicle alone (0.5% aqueous methyl-cellulose) or compound ER-892887 formulated in Vehicle at 100 mg/kg or 300 mg/kg. At 13 or 24 hours following oral dosing, mice were injected subcutaneously with 15 ug R848 to stimulate TLR7. Blood plasma was collected by cardiac puncture, and the IL-6 level at 1.5 hours after TLR7 stimulation was then assessed by standard ELISA procedure. Percent suppression indicated is relative to IL-6 induction following Vehicle control dosing. Statistical significance was determined by Mann-Whitney test.
To assess compound potency in vivo against mouse TLR7, a short-term in vivo (STIV) assay was utilized. Briefly, mice were orally dosed with compounds and at various time points afterwards were injected subcutaneously with agonist R848 to stimulate TLR7. The plasma IL-6 level following R848 stimulation was then measured by ELISA to assess compound potency and duration-of-action. […] Therefore, the activity of compounds in the STIV assay can be confidently attributed to their modulation of the TLR7 pathway. A single oral dose of ER-892887 at 300 mg/kg suppresses the R848/TLR7/IL-6 pathway in vivo by 80-90% for at least 24 hours (see FIG. 1).
Six to eight week old female BALB/c mice (Jackson Labs, Bar Harbor, Me.) were dosed by oral gavage in 200 ul volume with antagonist compounds formulated in 0.5% aqueous methyl-cellulose (Sigma, St. Louis, Mo.). At various time points afterwards, mice were injected subcutaneously (s.c.) in 100 ul volume with 15 ug R848 (Resiquimod; GLSynthesis, Worcester, Mass.) to stimulate TLR7. Blood plasma was collected by cardiac puncture, and levels of IL-6 at 1.5 hours after TLR7 stimulation were then assessed by standard ELISA procedure according to the manufacturer's recommended protocol (R&D Systems).

Human TLR7/8 = assay: Human PBMC cell-based assay, RNA-Ig (SL4-Ig) stimulus, cytokine ELISA; details: read-out: Human PBMC IC50, Human PBMC IL-6 Inhibition (SL4-Ig Ligand)
Mouse TLR7 [2] = molecular target: T1, Mouse TLR7; assay: Mouse spleen cell-based assay, R848 stimulus, IL-6 ELISA; details: read-out: Mouse Splenocyte IC50, Mouse Splenocyte IL-6 Inhibition (R848 Ligand)
Method: Spleens were harvested from female BALB/c mice (Jackson Labs, Bar Harbor, Me.) euthanized by CO2. A single cell suspension was obtained by passing spleens through a 40 μm nylon cell strainer. Cells were washed twice with 50 ml PBS (Mediatech, Inc., Manassas, Va.) and red blood cells were lysed in 5 ml RBC Lysis buffer (eBioscience, Inc., San Diego, Calif.) for 5 minutes at room temperature. Cells were washed twice more in PBS and finally resuspended in supplemented RPMI-1640 at 2.5×10^6 cells/ml. Cells were plated at 100 μl/well (2.5×10^5 cells/well) in 96-well tissue culture treated plates (Falcon). Serial dilutions of compounds solubilized in 100% DMSO were added in triplicate to cells to yield a final concentration of 0.1% DMSO. Cells were incubated with compound for 30 minutes at 37° C., 5% CO2 before adding 100 μl/well of 740 nM R848 (Resiquimod; GLSynthesis, Worcester, Mass.) in complete media for a final concentration of 370 nM R848. Cells were incubated for 20 hours at 37° C., 5% CO2. Culture supernatants were collected, and levels of IL-6 were assessed by standard ELISA procedure according to the manufacturer's recommended protocol (BD Biosciences, Inc., San Diego, Calif.).

Human TLR8 = Human TLR8 (Homo sapiens, UniProt Q9NR97); assay: HEK-293 NF-kappaB luciferase reporter assay, CL097 stimulus; assay type: cell-based; details: read-out: HEK/TLR8 IC50; human TLR8 in the HEK-293 assay format
Description: In vitro pharmacology: HEK-293 cells (ATCC) were engineered to stably express a NF-kappaB transcription factor inducible E-selectin (ELAM-1) luciferase reporter derived from the plasmid pGL3 (Promega) containing base pairs −2241 bp to −254 bp from the promoter of the human E-selectin gene (Accession No. NM_000450). These cells were then subsequently engineered to stably and individually express human TLR4, TLR7 or TLR9 full-length ORF cDNAs. Human TLR4 cDNA (Accession No. NM_138554) was cloned into pcDNA 3.0 expression vector (Invitrogen). TLR4 transfected cells were also engineered to express human MD-2 co-receptor [MD-2 cDNA (Accession No. NM_015364) was cloned into the pEF-BOS vector] and were supplemented with 10 nM soluble CD14 (R&D Systems) in the media to optimize LPS responsiveness. Human TLR9 cDNA (Accession No. NM_017442) was cloned into the pBluescript II KS vector (Agilent). Human TLR7 cDNA (Accession No. NM_016562) was obtained from OriGene. HEK-293 cells stably expressing human TLR8 (Accession No. NM_138636) or mouse TLR7 (Accession No. NM_133211) were purchased from InvivoGen and were then stably transfected with pNiFty2(NF-kappaB)-luciferase reporter plasmid (InvivoGen). Each cell type was plated in Dulbecco's modified Eagle's medium (DMEM) containing 10% fetal bovine serum (FBS) at a density of 2.22×10^5 cells/ml into a 384-well plate and incubated for 2 days at 37° C., 5% CO2. Varying concentrations of antagonist compounds were then added. Cells were then incubated for another 30 minutes before adding the appropriate TLR agonist as follows (final concentrations indicated): lipopolysaccharide (LPS; Sigma) at 10 ng/ml for TLR4, CL097 (InvivoGen) at 3 ug/ml for human TLR7 and TLR8 and mouse TLR7, and CpG-2006-2A [sequence: […] (SEQ ID NO: 1) with phosphorothioate backbone, synthesized by Sigma-Aldrich] at 0.6 uM for TLR9.

[3] = time point 6 hr, dose 33 mg/kg oral, tested form: HCl
[4] = time point 13 hr, dose 33 mg/kg oral, tested form: HCl
[5] = time point 13 hr, dose 100 mg/kg oral, tested form: HCl
[6] = time point 13 hr, dose 300 mg/kg oral, tested form: HCl
[7] = time point 24 hr, dose 33 mg/kg oral, tested form: HCl
[8] = time point 24 hr, dose 100 mg/kg oral, tested form: HCl
[9] = time point 24 hr, dose 300 mg/kg oral, tested form: HCl
[10] = time point 3 hr, dose 100 mg/kg oral
[11] = time point 6 hr, dose 33 mg/kg oral
[12] = time point 6 hr, dose 100 mg/kg oral

| SMILES | % Suppression vs. Vehicle (Mouse TLR7 [1]; [3]) [%] | % Suppression vs. Vehicle (Mouse TLR7 [1]; [4]) [%] | % Suppression vs. Vehicle (Mouse TLR7 [1]; [5]) [%] | % Suppression vs. Vehicle (Mouse TLR7 [1]; [6]) [%] | % Suppression vs. Vehicle (Mouse TLR7 [1]; [8]) [%] | % Suppression vs. Vehicle (Mouse TLR7 [1]; [9]) [%] | pIC50 (Human TLR7/8; tested form: HCl) | pIC50 (Mouse TLR7 [2]; tested form: HCl) | pIC50 (Mouse TLR7 [2]) | pIC50 (Human TLR8) | pIC50 (Human TLR7/8) | further results |
| --- | --- | --- | --- | --- | --- | --- | --- | --- | --- | --- | --- | --- |
| COc1ccc([C@@H]2C[C@H](C(F)(F)F)n3nc(-c4ccc(C(=O)N[C@H]5CCNC5)cc4)cc3N2)cc1OC | 0 | 0 | 28 | 8 | 0 | 3 | 7.15 | 6.76 |  |  |  | % Suppression vs. Vehicle (Mouse TLR7 [1]; [7]): 0% |
| COc1cc(-c2cc3n(n2)[C@@H](C(F)(F)F)C[C@@H](c2ccc(OC)c(OC)c2)N3)ccn1 |  |  |  |  |  |  |  |  |  | 7.15 |  |  |
| COc1ccc([C@@H]2C[C@H](C(F)(F)F)n3nc(-c4ccc(C(=O)N[C@@H]5CCNC5)cc4)cc3N2)cc1OC | 0 | 0 | 28 | 0 | 0 | 27 | 7.14 | 6.53 |  |  |  |  |
| COc1ccc([C@@H]2C[C@H](C(F)(F)F)n3nc(-c4ccc(C(N)=O)cc4F)cc3N2)cc1OC |  |  |  |  |  |  |  |  | 6.55 | 6.85 | 6.06 | % Suppression vs. Vehicle (Mouse TLR7 [1]; [10]): 96%; % Suppression vs. Vehicle (Mouse TLR7 [1]; [11]): 86%; % Suppression vs. Vehicle (Mouse TLR7 [1]; [12]): 94%; % Suppression vs. Vehicle (Mouse TLR7 [1]; time point 19 hr, dose 33 mg/kg oral): 49%; % Suppression vs. Vehicle (Mouse TLR7 [1]; time point 19 hr, dose 100 mg/kg oral): 52% |
| COc1ccc([C@@H]2C[C@H](C(F)(F)F)n3nc(-c4ccc(C(N)=O)c(Cl)c4)cc3N2)cc1OC |  |  |  |  |  |  |  |  | 5.76 | 5.83 | 5.77 | % Suppression vs. Vehicle (Mouse TLR7 [1]; [10]): 64%; % Suppression vs. Vehicle (Mouse TLR7 [1]; [11]): 68%; % Suppression vs. Vehicle (Mouse TLR7 [1]; [12]): 84%; % Suppression vs. Vehicle (Mouse TLR7 [1]; time point 13 hr, dose 33 mg/kg oral): 18%; % Suppression vs. Vehicle (Mouse TLR7 [1]; time point 13 hr, dose 100 mg/kg oral): 6% |
| COc1ccc([C@@H]2C[C@H](C(F)(F)F)n3nc(-c4cc5[nH]ncc5cc4C)cc3N2)cc1OC |  |  |  |  |  |  |  |  | 6.14 |  |  |  |

Now from value to compound, other results behind:

| % Suppression vs. Vehicle (Mouse TLR7 [1]; [3]) [%] | % Suppression vs. Vehicle (Mouse TLR7 [1]; [4]) [%] | % Suppression vs. Vehicle (Mouse TLR7 [1]; [5]) [%] | % Suppression vs. Vehicle (Mouse TLR7 [1]; [6]) [%] | % Suppression vs. Vehicle (Mouse TLR7 [1]; [8]) [%] | % Suppression vs. Vehicle (Mouse TLR7 [1]; [9]) [%] | pIC50 (Human TLR7/8; tested form: HCl) | pIC50 (Mouse TLR7 [2]; tested form: HCl) | pIC50 (Mouse TLR7 [2]) | pIC50 (Human TLR8) | pIC50 (Human TLR7/8) | SMILES | further results |
| --- | --- | --- | --- | --- | --- | --- | --- | --- | --- | --- | --- | --- |
|  |  |  |  |  |  |  |  | 6.20 |  |  | CNC(=O)c1ccc(-c2cc3n(n2)C(C(F)(F)F)CC(c2ccc(OC)c(OC)c2)N3)cn1 (centres unmarked) |  |
|  |  |  |  |  |  |  |  |  | 5.83 | 5.01 | COc1ccc([C@@H]2C[C@H](C(F)(F)F)n3nc(-c4ccc(C#N)cc4)cc3N2)cc1OC |  |
| 71 | 33 | 43 | 96 | 13 | 45 | 7.77 | 6.74 |  |  |  | COc1ccc([C@@H]2C[C@H](C(F)(F)F)n3nc(-c4ccc(C(=O)N5CC(N)C5)cc4)cc3N2)cc1OC | % Suppression vs. Vehicle (Mouse TLR7 [1]; [7]): 35% |
